High-throughput results from PubChem.
IL-2 act: activates IL-2 in a cell-based reporter assay | IL-2 activation reporter assay, cell-based qHTS; stimulated with anti-CD3/CD4/CD28 beads; in transgenic mouse T cells | activation, % (series mostly up to about 46 µM) | hit rate 0.065% among 360,000; in the data active means activation above about 50%; inconclusive means mostly about 30% to 49%
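EGFP and DsRed fluorescence is measured by plate cytometry in unstimulated transgenic mouse T cells exposed to compound for 60 minutes, then stimulated 18 hours at 37 degrees C with anti-CD3/anti-CD4 beads plus anti-CD28.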
PINK1 modulator: changes PINK1 expression | PINK1 immunofluorescence, high-content cytometry, 24 h | Potency, µM (doses to about 76.6 µM), actives largely listed as activators | hit rate 0.2% among 410,000; active means well fitted activation curve with a large enough effect; inconclusive means small, poorly fitted or top-dose-only effect; cell line not stated here; further: nearly all actives have a fitted effect of over 65% in size
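PINK1 protein level read as immunofluorescence by microplate cytometer in a fixed, stained stable cell line after 24 h exposure to five compound concentrations, with CCCP as control.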
TCR act: activates T cell receptor signaling | primary human leukocytes, anti-CD3, IL-2 HTRF, 48 h | Potency, µM (titrated, usually from 9.22 µM), most hits filed as activators | 330,000 tested, under 10 active | AID 504894
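48 hr co-incubation of compounds, a-CD3 beads and primary human leukocytes; IL-2 quantified homogeneously by HTRF with anti-IL-2 K and d2 conjugates.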
RXFP1 agonist: RXFP1 (human) receptor agonism; Q9HBX9; HEK293T-RXFP1 cAMP TR-FRET, 30 min; response scale: percent of porcine relaxin response, buffer zero; Potency, µM (top dose mostly 57.5 µM), usual class: activators; hit rate 0.3% among 370,000; further: nearly all actives have a fitted effect of over 60% in size
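Agonist response is measured as cAMP accumulation in an RXFP1-transfected HEK293T line under PDE4 inhibition. Values are scaled between buffer-only and 29 nM porcine relaxin, and EC50s come from standard Hill equation fits.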
miR-21 reporter: miR-21 reporter, rising signal | AID 2288 | HeLa miR-21 FLuc reporter, luciferase, 48 h | 340,000 tested, under 10 active | Potency, µM (doses to about 38.3 µM); active = well fitted rising curve with a large enough effect; inconclusive = small, poorly fitted or top-dose-only effect; inactive = no such curve, though single readings can be large or run the other way;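 note: miR-21 action dims this reporter so a rising signal means less miR-21 action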
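Luminescence from a firefly luciferase reporter carrying a miR-21 binding site downstream, stably expressed under a CMV promoter in HeLa cells that make miR-21 endogenously, reports miRNA modulation after 48 h compound exposure up to approximately 40uM final.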
RXFP1 antag: blocks the human relaxin receptor RXFP1 | HEK293-RXFP1, relaxin-stimulated cAMP HTRF, 30 min; hits give low values | activity change, negative = inhibition, % at 57.5 µM | Q9HBX9 | hit rate 0.59% among 350,000;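 active means activity change of -60% or lower, but not beyond a set lower limit; inconclusive means change between -60% and -40%, or beyond the set limit; inactive means change above -40%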
A number is an active result; – = inactive; ? = inconclusive; · = not tested or not shown. Most compounds without a hit are left out; they make up all but 0.78% or so of the library. Unless noted, the call rests on the fitted dose curve; in most records, active means well fitted curve in the direction sought with a large enough effect; inconclusive means small, poorly fitted or top-dose-only effect, or another doubt; inactive means no such curve, though single readings can be large; an effect the other way counts as inactive or inconclusive.

SMILES | IL-2 act | PINK1 modulator | TCR act | RXFP1 agonist | miR-21 reporter | RXFP1 antag
CC(NC(=O)/C(C#N)=C/c1ccc(Cl)c([N+](=O)[O-])c1)c1ccccc1 (stereo not given) | – | – | – | – | ? | -104.4
C[C@@H](NC(=O)/C(C#N)=C/c1ccc(O)c(O)c1)c1ccccc1 | – | – | – | – | · | ·
COc1cc(C(=O)N/N=C/c2ccc(OC(=O)c3ccccc3Cl)cc2)ccc1O | – | – | – | – | – | -91.4
CN(C)c1ccc(Cc2cc3c(O)ccc(O)c3cc(Cc3ccc(N(C)C)cc3)c2=O)cc1 | – | – | – | · | · | -107.3
CN(C)c1ccc(C(=O)c2ccc(O)cc2O)cc1 | – | – | – | – | – | –
Cc1cccc2sc(NNC(=O)C3=COCCO3)nc12 | – | – | – | – | – | -60.8
COc1ccc(-c2ccc(C(=O)N(C)Cc3csc(C)n3)c(N3CCC(N4CCc5ccccc5C4)CC3)n2)cc1 | · | – | · | · | · | ·
Cc1nc(CC(=O)N2CCC(n3c(C4CCC4)nc4cccnc43)CC2)cs1 | · | – | · | · | · | ·
CC(=O)c1ccc(NC(=O)c2ccc(NC(=O)CCS(=O)(=O)c3cccs3)cc2)cc1 | – | – | – | – | – | ?
COc1ccc(NC(=O)c2ccc(NC(=O)CCS(=O)(=O)c3cccs3)cc2)cc1 | – | – | – | – | – | -96.7
CC(C)(C)C1CCC2(CC1)C(C#N)=C(SCC(=O)Nc1ccccc1)NC(=O)C2C#N (stereo not given) | – | 22.4µM | – | – | – | –
COc1cc(OC)c(OC)cc1CN1CCCC(c2nc(C)ncc2-c2ccc(F)cc2)C1 (stereo not given) | · | – | · | · | · | ·
CCC1CN(CCNC(=O)C(C)(C)O)Cc2cc(OC)ccc2O1 (stereo not given) | · | – | · | · | · | ·
CSCCC(NS(=O)(=O)c1ccc(Cl)cc1)C(=O)OCc1cccc(Cl)c1 (stereo not given) | – | – | – | – | – | –
CSCCC(NS(=O)(=O)c1ccc(Cl)cc1)C(=O)OCc1c(Cl)cccc1Cl (stereo not given) | – | 39.8µM | – | – | – | –
Cc1cnc(-n2ncc(C(=O)NCCCc3ccncc3)c2C)nc1-c1ccc(F)cc1 | · | – | · | · | · | ·
COc1ccc(S(=O)(=O)Cc2ccc(C(=O)NC3CCCCCC3)o2)cc1 | – | – | – | – | – | -101.8
O=[N+]([O-])c1cc2c(c(CSc3ncccn3)c1)OCOC2 | – | – | – | 14.1µM | – | –
CC(=O)c1ccc(F)c(-c2cc(C)cc3c2OC(CNC(=O)c2csc(C)n2)C3)c1 (stereo not given) | · | – | · | · | · | ·
CC(C)c1c(C(=O)N(C)Cc2cccc3ncccc23)cnn1-c1nccc(-c2ccccc2F)n1 | · | – | · | · | · | ·
COc1ccc2nc(Nc3nc(C)c(C(C)=O)s3)sc2c1 | – | – | – | – | – | -70.0
CCOC(=O)C1=C(COc2ccc(C)cc2)NC(=O)NC1c1cc(C)ccc1C (stereo not given) | – | – | – | – | – | ·
COC(=O)C1=C(COc2ccc(F)cc2)NC(=O)NC1c1ccc(C)cc1C (stereo not given) | – | 11.2µM | · | – | – | –
COC(=O)c1ccc(O)cc1 | – | – | – | – | – | –
O=C(OCc1ccccc1)c1ccc(NCc2cc(O)ccc2O)cc1 | – | – | – | · | · | –
SMILES | IL-2 act | PINK1 modulator | TCR act | RXFP1 agonist | miR-21 reporter | RXFP1 antag
CC(C)OC(=O)c1ccc(NCc2cc(O)ccc2O)cc1 | – | – | – | · | · | -63.5
COC(=O)c1ccc(CCc2cc(O)ccc2O)cc1 | – | – | – | · | · | -71.9
COC(=O)c1ccc(CCc2cc(O)c(Br)cc2O)cc1 | – | ? | – | · | · | -96.5
CCC1(C2CCN(Cc3ccc(C)s3)CC2)NC(=O)N(CC2COc3ccccc3O2)C1=O (stereo not given) | · | – | · | · | · | ·
CC(=O)Nc1ccc(NC(=O)CN(C)S(=O)(=O)c2ccc3c(c2)CCC(=O)N3)cc1 | – | – | – | – | – | -85.8
CCOc1ccc(NC(=O)CN(C)S(=O)(=O)c2ccc3c(c2)CCC(=O)N3)cc1 | – | – | – | – | – | –
Cc1ccc(C2C(C(=O)c3cccs3)=C(O)C(=O)N2c2nnc(C)s2)cc1 (stereo not given) | – | – | – | 20µM | – | –
Cc1c(C(=O)NCC2(N3CCOCC3)CCCCC2)cnn1-c1nccc(-c2ccccc2F)n1 | · | – | · | · | · | ·
COC(=O)c1ccccc1NC(=O)CCS(=O)(=O)c1nc(-c2ccc3c(c2)OCO3)cc(C(F)(F)F)n1 | · | – | · | – | ? | -62.9
O=C(CCS(=O)(=O)c1nc(-c2ccc3c(c2)OCO3)cc(C(F)(F)F)n1)Nc1ccccc1F | · | – | · | – | – | –
COc1ccc2ccccc2c1CN1CCCC(n2cc(C(=O)N3CCCC3)nn2)C1 (stereo not given) | · | – | · | · | · | ·
COc1cc2c3nnc(-c4ccc(F)cc4)c-3cn(Cc3ccccc3)c2cc1OC | 199.2 | ? | – | – | – | ·
CCN1CCCC1CNC(=O)c1cnn(-c2nccc(-c3cccs3)n2)c1C(C)C (stereo not given) | · | – | · | · | · | ·
CC(=O)c1cccc(NC(=O)Nc2ccc3c(c2)N(C)C(=O)CS3)c1 | – | – | – | – | – | -72.4
CCc1ccc(NC(=O)Nc2ccc3c(c2)N(C)C(=O)CS3)cc1 | – | 17.8µM | – | – | – | ·
CN(C)CC(C)(O)c1ccc2c(c1)CN(Cc1cn(C)c3ccccc13)CCO2 (stereo not given) | · | – | · | · | · | ·
NS(=O)(=O)c1ccc(NC(=O)c2ccc3c(c2)CCCC3)cc1 | – | 39.8µM | – | ? | – | –
NS(=O)(=O)c1ccc(NC(=O)c2ccc3c(c2)OCO3)cc1 | – | – | – | ? | – | –
O=C1NC(=O)C(Cc2ccccc2)(C2CCN(Cc3cccn3-c3cccnc3)CC2)N1 (stereo not given) | · | – | · | · | · | ·
CCc1nc2ccc(C(=O)NCCc3ccc(OC)cc3OC)cc2nc1CC | · | – | · | – | – | -71.4
COc1ccc(-c2cc(CCCC(=O)NCCc3ccc(OC)cc3OC)no2)cc1 | – | 11.2µM | · | – | – | –
Nc1ncnc2c1ncn2Cc1c(F)cccc1Cl | · | · | · | · | · | –
O=c1/c(=C/c2ccc(O)cc2)sc2nc3cc(Br)cnc3n12 | · | · | · | – | – | ·
O=c1/c(=C\c2ccc(O)cc2)sc2nc(-c3ccccc3)c(-c3ccccc3)n12 | 99.4 | – | – | – | – | –
CC1(C)OC(=O)Nc2ccc(Br)cc21 | · | · | · | · | · | –
CC(C)Cc1nc2cc(NS(=O)(=O)N(C)C)cc(C(=O)N3CCSCC3)c2n1C | · | – | · | · | · | ·
Cc1ccc(NC(=O)Cn2c(=O)n(-c3ccccc3)c(=O)c3ccc(C(=O)NCc4ccc5c(c4)OCO5)cc32)cc1 | · | – | · | 22.4µM | – | ·
